Biological target: GST-free tubby-N (tubby N-terminus, 1M-242P) (mouse) (UniProt P50586)
Assay: phage binding assay

Protein sequences, listed by entry. Tags and fused reporters are not part of them. Residues count along the entry.
UniProt P50586, 1-242: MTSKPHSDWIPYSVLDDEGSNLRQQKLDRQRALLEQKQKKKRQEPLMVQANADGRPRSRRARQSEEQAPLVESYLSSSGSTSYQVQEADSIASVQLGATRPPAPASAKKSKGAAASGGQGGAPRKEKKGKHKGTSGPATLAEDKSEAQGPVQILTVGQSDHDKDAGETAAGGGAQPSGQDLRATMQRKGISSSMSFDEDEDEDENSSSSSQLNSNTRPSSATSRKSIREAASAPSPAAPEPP

Paf1/RNA polymerase II complex component (Rtf1) phage clone, 69N-186K (domain or fragment)
binding specificity, clonal phage vs. control phage: 6.4 X

— article PMC3816987
